# Assay results published in US20080287486A1, “Prokinetic agent for bowel preparation” (Theravance, Inc., priority 2007, published 2008).
# Tested on: healthy subjects
# Experiment: Measurement of onset of bowel movement in healthy subjects (stool diary card, rising single doses)
# Conditions: human, in vivo
# Description: Gelatin capsules were filled with up to 10 milligrams (free base equivalent) of 1-isopropyl-2-oxo-1,2-dihydroquinoline-3-carboxylic acid {(1S,3R,5R)-8-[(R)-2-hydroxy-3-(methanesulfonyl-methyl-amino)propyl]-8-aza-bicyclo[3.2.1]oct-3-yl}amide hydrochloride, the present prokinetic agent, prepared according to the method of Examples 1 and 2.
# Subjects were dosed weekly with rising doses of the prokinetic agent (0.1 to 70 mg) or placebo in two alternating panels of 10 subjects and a third panel of 10 subjects. Subjects were monitored for safety and evidence of prokinetic effects using a stool diary card. Time and consistency (Bristol score) of each bowel movement were recorded.
structure (smiles),measurement,value
"CC(C)n1c(=O)c(C(=O)N[C@H]2C[C@H]3CC[C@@H](C2)N3C[C@@H](O)CN(C)S(C)(=O)=O)cc2ccccc21 [compound 1, 1-isopropyl-2-oxo-1,2-dihydroquinoline-3-carboxylic acid {(1S,3R,5R)-8-[(R)-2-hydroxy-3-(methanesulfonyl-methyl-amino)propyl]-8-azabicyclo[3.2.1]oct-3-yl}amide]",prokinetic effect,rapid and effective prokinetic effect
